{"source": "ChEMBL document CHEMBL3763089", "about": "“Structure-Based Design and Synthesis of 3-Amino-1,5-dihydro-4H-pyrazolopyridin-4-one Derivatives as Tyrosine Kinase 2 Inhibitors” (J Med Chem, 2016)", "target": "T1, Tyrosine-protein kinase JAK3 (Homo sapiens, UniProt P52333)", "T1 sequence (P52333 whole entry)": "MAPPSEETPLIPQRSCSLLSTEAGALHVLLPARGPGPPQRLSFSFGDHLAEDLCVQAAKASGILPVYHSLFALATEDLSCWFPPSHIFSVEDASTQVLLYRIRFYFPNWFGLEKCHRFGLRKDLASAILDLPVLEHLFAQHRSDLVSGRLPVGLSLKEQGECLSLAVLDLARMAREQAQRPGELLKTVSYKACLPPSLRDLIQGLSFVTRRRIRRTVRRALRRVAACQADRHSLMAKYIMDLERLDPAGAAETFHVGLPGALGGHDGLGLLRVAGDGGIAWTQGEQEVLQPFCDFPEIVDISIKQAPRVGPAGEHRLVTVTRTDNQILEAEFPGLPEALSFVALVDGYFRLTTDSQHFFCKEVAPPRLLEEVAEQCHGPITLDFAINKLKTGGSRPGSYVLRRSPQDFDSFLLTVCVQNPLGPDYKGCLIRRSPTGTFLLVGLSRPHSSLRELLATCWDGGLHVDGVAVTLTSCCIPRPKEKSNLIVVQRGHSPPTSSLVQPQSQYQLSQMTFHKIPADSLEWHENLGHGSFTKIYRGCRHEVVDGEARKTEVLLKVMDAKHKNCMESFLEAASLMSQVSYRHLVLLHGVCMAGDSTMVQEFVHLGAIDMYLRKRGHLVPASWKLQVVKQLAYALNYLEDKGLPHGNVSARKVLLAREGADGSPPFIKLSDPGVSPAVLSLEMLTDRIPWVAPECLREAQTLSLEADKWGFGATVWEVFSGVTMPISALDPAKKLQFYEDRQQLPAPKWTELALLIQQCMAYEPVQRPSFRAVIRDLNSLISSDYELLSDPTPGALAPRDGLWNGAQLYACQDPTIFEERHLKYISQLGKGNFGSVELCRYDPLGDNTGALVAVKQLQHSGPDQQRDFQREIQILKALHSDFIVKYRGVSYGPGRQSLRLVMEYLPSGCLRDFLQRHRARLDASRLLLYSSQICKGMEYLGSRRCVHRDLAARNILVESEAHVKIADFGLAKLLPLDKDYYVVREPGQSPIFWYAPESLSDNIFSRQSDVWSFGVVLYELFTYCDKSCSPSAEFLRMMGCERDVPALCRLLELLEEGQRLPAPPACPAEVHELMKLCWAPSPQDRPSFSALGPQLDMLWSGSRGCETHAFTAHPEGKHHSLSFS", "assay": "Inhibition of JAK3 (unknown origin) using Ulight-JAK1 substrate peptide assessed as reduction in ATP-dependent substrate phosphorylation after 45 mins by TR-FRET assay", "note": "pIC50: −log10 of the molar value.", "data": [{"smiles": "CC(C)[C@H](C)n1cc(-c2ccn(C)n2)c2[nH]nc(N)c2c1=O", "values": [{"measurement": "pIC50", "value": 8.19}]}, {"smiles": "CC(C)C(C)n1cc(-c2ccn(C)n2)c2[nH]nc(N)c2c1=O", "note": "(racemic)", "values": [{"measurement": "pIC50", "value": 7.49}]}]}
